From patent US9006450B2 (Boehringer Ingelheim International GmbH, priority 2010, dated 2015)

Protein sequences, listed by entry. Tags and fused reporters are not part of them. Residues count along the entry.
UniProt O00763, 129-2458 limits assumed: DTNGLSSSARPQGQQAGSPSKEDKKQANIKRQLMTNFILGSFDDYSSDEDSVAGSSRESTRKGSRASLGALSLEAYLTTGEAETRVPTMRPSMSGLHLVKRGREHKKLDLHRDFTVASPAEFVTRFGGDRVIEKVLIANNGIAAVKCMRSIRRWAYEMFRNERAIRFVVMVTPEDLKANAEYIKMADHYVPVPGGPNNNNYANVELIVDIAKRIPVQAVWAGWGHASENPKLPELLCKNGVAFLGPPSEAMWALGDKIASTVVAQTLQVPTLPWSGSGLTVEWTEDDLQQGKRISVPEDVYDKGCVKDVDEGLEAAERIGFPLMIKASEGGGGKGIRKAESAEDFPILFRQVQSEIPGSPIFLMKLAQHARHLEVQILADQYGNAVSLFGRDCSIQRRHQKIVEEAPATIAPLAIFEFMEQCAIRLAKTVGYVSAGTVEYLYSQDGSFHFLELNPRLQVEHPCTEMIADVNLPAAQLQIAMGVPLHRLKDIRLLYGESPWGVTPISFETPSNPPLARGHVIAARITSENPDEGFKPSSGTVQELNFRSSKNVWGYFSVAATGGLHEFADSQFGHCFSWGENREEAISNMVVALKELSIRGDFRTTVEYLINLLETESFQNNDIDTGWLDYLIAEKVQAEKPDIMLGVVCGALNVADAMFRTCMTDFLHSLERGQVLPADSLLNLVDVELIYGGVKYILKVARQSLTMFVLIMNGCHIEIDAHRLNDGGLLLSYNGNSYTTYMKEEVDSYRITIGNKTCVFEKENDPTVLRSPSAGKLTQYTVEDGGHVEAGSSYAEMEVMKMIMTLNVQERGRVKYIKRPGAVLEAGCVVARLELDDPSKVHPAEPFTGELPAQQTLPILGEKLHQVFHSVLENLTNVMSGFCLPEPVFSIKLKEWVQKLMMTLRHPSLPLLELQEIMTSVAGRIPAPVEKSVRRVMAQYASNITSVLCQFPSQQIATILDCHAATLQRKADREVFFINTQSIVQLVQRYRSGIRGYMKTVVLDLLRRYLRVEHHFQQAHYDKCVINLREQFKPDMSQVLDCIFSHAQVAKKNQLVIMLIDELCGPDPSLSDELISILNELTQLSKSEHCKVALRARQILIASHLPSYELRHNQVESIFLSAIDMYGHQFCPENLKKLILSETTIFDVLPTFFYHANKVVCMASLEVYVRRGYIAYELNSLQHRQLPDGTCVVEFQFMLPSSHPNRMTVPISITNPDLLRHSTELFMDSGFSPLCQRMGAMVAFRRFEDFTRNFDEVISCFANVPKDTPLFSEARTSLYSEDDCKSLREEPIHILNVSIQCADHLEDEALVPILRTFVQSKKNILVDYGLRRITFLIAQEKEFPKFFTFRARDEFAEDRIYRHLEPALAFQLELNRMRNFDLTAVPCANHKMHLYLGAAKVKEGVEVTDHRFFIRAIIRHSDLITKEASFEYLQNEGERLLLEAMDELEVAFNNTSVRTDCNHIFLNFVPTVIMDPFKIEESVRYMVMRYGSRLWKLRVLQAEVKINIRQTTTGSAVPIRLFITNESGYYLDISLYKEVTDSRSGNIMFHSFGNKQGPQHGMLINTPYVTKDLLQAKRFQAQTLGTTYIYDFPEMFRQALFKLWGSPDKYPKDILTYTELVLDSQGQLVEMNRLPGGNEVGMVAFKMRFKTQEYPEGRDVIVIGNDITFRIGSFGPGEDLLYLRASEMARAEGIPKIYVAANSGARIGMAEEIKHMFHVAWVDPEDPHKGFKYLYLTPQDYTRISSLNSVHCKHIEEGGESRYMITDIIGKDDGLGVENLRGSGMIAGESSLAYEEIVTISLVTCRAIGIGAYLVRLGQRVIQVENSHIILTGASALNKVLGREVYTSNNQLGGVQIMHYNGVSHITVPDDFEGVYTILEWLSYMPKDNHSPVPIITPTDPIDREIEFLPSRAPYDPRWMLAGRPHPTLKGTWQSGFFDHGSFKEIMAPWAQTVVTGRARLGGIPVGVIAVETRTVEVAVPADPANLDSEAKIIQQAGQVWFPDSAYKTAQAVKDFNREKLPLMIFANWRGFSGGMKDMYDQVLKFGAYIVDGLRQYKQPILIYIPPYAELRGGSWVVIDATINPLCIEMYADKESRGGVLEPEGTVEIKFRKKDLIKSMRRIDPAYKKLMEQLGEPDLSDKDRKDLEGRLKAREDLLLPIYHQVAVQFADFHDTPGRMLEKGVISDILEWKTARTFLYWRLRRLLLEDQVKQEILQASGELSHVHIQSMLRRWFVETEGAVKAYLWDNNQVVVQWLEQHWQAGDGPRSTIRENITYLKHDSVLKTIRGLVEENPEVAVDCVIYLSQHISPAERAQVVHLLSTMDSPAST

The molecules below were run against human ACC2 (Homo sapiens, UniProt O00763) (assay: ACC2 assay, spectrophotometric 384 well assay (NADH-linked, coupled lactate dehydrogenase/pyruvate kinase)). Conditions: hACC2 construct lacking 128 N-terminal amino acids, 25° C., 340 nm.
Method: Spectrophotometric 384 Well Assay
Malonyl CoA formation by acetyl CoA carboxylases is stoichometrically linked to the consumption of ATP. ACC2 activity is measured in a NADH-linked kinetic method measuring ADP generated during the ACC reaction using a coupled lactate dehydrogenase/pyruvate kinase reaction.
For biological testing, a human ACC2 construct which lacks the 128 amino acids at the N-terminus for increased solubility (nt 385-6966 in Genbank entry AJ575592) is cloned. The protein is then expressed in insect cells using a baculoviral expression system. Protein purification is performed by anion exchange.
All compounds are dissolved in dimethyl sulfoxide (DMSO) to a concentration of 10 mM.
Assay reactions are then carried out in 384-well plates, with hACC2 in an appropriate dilution and at final assay concentrations (f.c.) of 100 mM Tris (pH 7.5), 10 mM trisodium citrate, 25 mM KHCO3, 10 mM MgCl2, 0.5 mg/mL BSA, 3.75 mM reduced L-glutathione, 15 U/mL lactate dehydrogenase, 0.5 mM phosphoenolpyruvate, 15 U/mL pyruvate kinase, compounds at different concentrations at final DMSO concentrations of 1%.
The enzymatic reaction is then started by addition of a mixture of NADH, acetyl Coenzyme A (both 200 μM f.c.) and ATP (500 uM f.c.). The decrease of the optical density (slope S) is then determined at 25° C. at a wavelength of 340 nm over 15 minutes in a spectrophotometric reader.
Each assay microtiter plate contains wells with vehicle instead of compound as controls for the non-inhibited enzyme (100% CTL; ‘HIGH’) and wells without acetyl-CoA as controls for non-specific NADH degradation (0% CTL; ‘LOW’).
The slope S is used for calculation of % CTL=(S(compound)−S('LOW'))/(S('HIGH')−S('LOW'))*100. Compounds will give values between 100% CTL (no inhibition) and 0% CTL (complete inhibition).
For IC50 value determination, the sample slope in the presence of the test compound after subtraction of the low controls (S(compound)−S('LOW')) are used.
An IC50 value is derived from the compound slopes at different dosages after subtraction of the low controls (S(compound)−S('LOW')) by non-linear regression curve fitting (equation y=(A+((B−A)/(1+((C/x)^D))))).

IC50 [nM] | Compound
130 | CCC(=O)N[C@@H](C)c1ccc(C2CCN(c3ccc(OCC4CC4)cc3)CC2)cc1
350 | CCOc1ccc(N2CCC(c3ccc([C@H](C)NC(C)=O)cc3)CC2)c(OC)c1
2600 | CCOc1ccc(N2CCC(c3ccc([C@H](C)NC(=O)C4CCOC4)cc3)CC2)cc1 (stereo partly shown)
13200 | CC(=O)N[C@H](C)c1ccc(C2CCN(c3ccc(OCC4CC4)cc3)CC2)cc1
140 | CCOc1ccc(N2CCC(c3ccc([C@H](C)NC(=O)N(C)C)cc3)CC2)cc1
290 | CC(=O)N[C@@H](C)c1ccc(C2CCN(c3cc(Oc4ccccc4)ncn3)CC2)cc1
23300 | CCOc1ccc(N2CCC(c3ccc([C@@H](C)NC(C)=O)cc3)CC2)c(F)c1
40 | CC(=O)N[C@@H](C)c1ccc(C2CCN(c3ccc(OCC4CC4)cc3F)CC2)cc1
160 | COc1cc(OC2CC2)ccc1N1CCC(c2ccc([C@H](C)NC(C)=O)cc2)CC1
240 | CC(=O)N[C@@H](C)c1ccc(C2CCN(c3ccc(OC(C)C)cc3)CC2)cc1
50 | CC(=O)N[C@@H](C)c1ccc(C2CCN(c3ccc(OC4CC4)cc3)CC2)cc1
30 | CC(=O)N[C@@H](C)c1ccc(C2CCN(c3ccc(OCC4CC4(F)F)cc3F)CC2)cc1 (stereo partly shown)
20 | CC(=O)N[C@@H](C)c1ccc(C2CCN(c3ncc(-c4ccoc4)cn3)CC2)cc1
30 | CC(=O)N[C@@H](C)c1ccc(C2CCN(c3ccc(OC4CCC4)cc3)CC2)cc1
350 | C[C@H](NC(=O)N(C)C)c1ccc(C2CCN(c3ccc4c(c3)OCCO4)CC2)cc1
90 | CCOc1ccc(N2CCC(c3ccc([C@H](C)NC(C)=O)cc3)CC2)c(F)c1
170 | CCOc1cc(N2CCC(c3ccc([C@H](C)NC(=O)N(C)C)cc3)CC2)ccn1
210 | CCOc1ccc(N2CCC(c3ccc([C@H](C)NC(C)=O)cc3)CC2)c(C#N)n1
2700 | CC(=O)N[C@@H](C)c1ccc(C2CCN(c3ccc(OCC4(C#N)CC4)cc3)CC2)cc1
